{"source": "patent US8497303B2", "about": "“Method to enhance aqueous solubility of poorly soluble actives” (Dow Global Technologies LLC, priority 2008, dated 2013)", "conditions": "best PEG 400:water blend, HPLC", "data": [{"smiles": "CC(C)Cc1ccc(C(C)C(=O)O)cc1", "note": "(stereo not shown) [Ibuprofen, ibuprofen]", "values": [{"measurement": "Maximum loading achieved for any of the PEG 400:water binary blends", "value": 24.3, "unit": "weight percent"}]}]}
